Values of other authors as cited in US8628797B2, “Oral extended-release composition” (Andrx Pharmaceuticals, LLC, priority 2003, dated 2014).

Settings: in words; literature review

Question: With `CCCc1cc(=O)[nH]c(=S)[nH]1` [propylthiouracil] as the compound, how does the “absorption in the presence of food” value read?
Answer: The value was “unaffected”.
